# Reference: PubChem BioAssay AID624417 (National Center for Advancing Translational Sciences (NCATS), 2012)
# Chains of the proteins cited; added tags and fusions are not shown.
# UniProt P43220, whole entry, looked up: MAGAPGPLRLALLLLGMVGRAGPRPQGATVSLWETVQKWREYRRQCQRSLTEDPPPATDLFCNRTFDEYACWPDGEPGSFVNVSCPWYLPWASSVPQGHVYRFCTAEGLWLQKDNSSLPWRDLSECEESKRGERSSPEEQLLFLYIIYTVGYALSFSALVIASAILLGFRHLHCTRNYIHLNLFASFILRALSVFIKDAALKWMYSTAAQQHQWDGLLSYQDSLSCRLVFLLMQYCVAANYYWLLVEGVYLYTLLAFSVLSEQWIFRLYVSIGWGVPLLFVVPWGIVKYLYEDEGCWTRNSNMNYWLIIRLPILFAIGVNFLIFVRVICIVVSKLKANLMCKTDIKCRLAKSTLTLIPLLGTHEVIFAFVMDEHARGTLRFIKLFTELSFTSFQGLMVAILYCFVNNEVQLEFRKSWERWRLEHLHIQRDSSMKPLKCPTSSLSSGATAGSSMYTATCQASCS
# This is a selection; strong and weak results do not stand in their true shares. Records with an inconclusive call do not appear. Activity calls are given as the source filed them. Calls follow the shape of the dose curve; as a rule, active = well fitted inhibition curve with a large enough effect; inconclusive = small, poorly fitted or top-dose-only effect; inactive = no such curve, though single readings can be large or run the other way.
# Target: Glucagon-like peptide 1 receptor (Homo sapiens) (UniProt P43220)
# Assay: qHTS of GLP-1 Receptor Inverse Agonists (Inhibition Mode); also: nearly all actives have a fitted effect of over 55% in size
# Details: HEK293 GLP-1R CRE-luciferase, luminescence, 24 h, GLP-1R form is constitutively active; series mostly up to 38.3 µM; activity change, negative = inhibition: at the top concentration
# % is scaled to controls: 0 for no effect and ±100 for the full control effect; potency is read from the fitted curve at half-maximal effect.
SMILES,"activity change, negative = inhibition",Potency
CCOP(=O)(Nc1ccccc1)OCC,inactive: -5.69%,
Cc1ccc(NP(=O)(Oc2ccccc2F)Oc2ccccc2F)nc1,inactive: -16.4%,
CN(C(=O)Cc1ccc(Cl)c(Cl)c1)[C@H]1CCCC[C@@H]1N1CCCC1,inactive: -6.16%,
CC(=O)Nc1ccc([As](=O)(O)O)cc1,inactive: -16%,
O=C(O)c1ccccc1[As](=O)(O)O,inactive: 17.6%,
CCCC1OP(N)(=O)OCC1CC (centres undefined),inactive: 7.32%,
Nc1cccc2ccc([As](=O)(O)O)cc12,inactive: 7.37%,
CCN(N=Nc1nonc1N)c1nonc1N,inactive: 3%,
Clc1ccc(Cl)c(NC2=NCC(CBr)S2)c1 (centres undefined),inactive: -4.26%,
COc1ccccc1OP(=O)(Nc1ccc(C)cn1)Oc1ccccc1OC,inactive: -5.43%,
Cc1ccc(OP(=O)(Nc2nccs2)Oc2ccc(C)cc2)cc1,inactive: -24.9%,
CN(C(=O)Cc1ccc(Cl)c(Cl)c1)[C@H]1CCCC[C@H]1N1CCCC1,inactive: -4.46%,
Cc1ccc(N/C(=N/P(=O)(N2CCOCC2)N2CCOCC2)N2CCOCC2)cc1,inactive: 5.72%,
NC(=O)c1cc([N+](=O)[O-])cc([N+](=O)[O-])c1N,inactive: 9.5%,
O=[N+]([O-])C1C(O)C(O)C([N+](=O)[O-])C(O)C1O (centres undefined),inactive: 15%,
Oc1ccccc1CNc1ccccn1,inactive: 14.4%,
O=C(NC(Sc1ccncn1)C(Cl)(Cl)Cl)c1ccccc1 (centres undefined),inactive: -0.448%,
Nc1cc(N)c2nonc2c1[N+](=O)[O-],inactive: 0%,
Cc1ccc(NP(=O)(Oc2ccccc2)Oc2ccccc2)nc1,inactive: -27.6%,
O=[N+]([O-])c1cccc2n[nH]nc12,inactive: 0.707%,
CC(=O)N1C2C3N(C(C)=O)C1C1N(C(C)=O)C(C(N1C(C)=O)N3C(C)=O)N2C(C)=O,inactive: 6.79%,
COc1ccc(C2=NCC(CBr)S2)cc1 (centres undefined),inactive: -8.64%,

SMILES,"activity change, negative = inhibition",Potency
c1cc(-c2nn[nH]n2)ccc1-c1nn[nH]n1,inactive: 2.79%,
CC(C)c1nc(Nc2ccccc2)n(P(=O)(N(C)C)N(C)C)n1,inactive: -5.91%,
CC(C)=N/N=C(\N)N[N+](=O)[O-],inactive: -2.04%,
CN(C)C(=O)OCCc1n(C)cc[n+]1C,inactive: -5.85%,
CCN(/C(=N/P(=O)(N1CCOCC1)N1CCOCC1)N1CCOCC1)c1ccc(OC)cc1,inactive: 10.5%,
Nc1ccc([As](=O)(O)c2ccc(N)cc2)cc1,inactive: 4.83%,
O=C(Nc1cc([As](=O)(O)O)ccc1O)c1ccccc1,inactive: 4.03%,
O=P1(N(CCCl)CCCl)OCCCS1 (centres undefined),inactive: 1.07%,
O=C(O)CNc1ccc([As](=O)(O)O)cc1,inactive: 7.49%,
COC(=O)C1(C)COP(=O)(Nc2ccccc2)OC1 (centres undefined),inactive: 13.4%,
O=[N+]([O-])c1cccc(NC2=NCC(CBr)S2)c1 (centres undefined),inactive: 25.8%,
O=[N+]([O-])c1ncn(CCn2ncnc2[N+](=O)[O-])n1,inactive: 9.52%,
CC(C)(C)C(=O)NC(Sc1ccncn1)C(Cl)(Cl)Cl (centres undefined),inactive: 4.59%,
C[C@H]1OP(=O)(Oc2ccccc2)[C@H](O)[C@H](O)[C@H]1N=[N+]=[N-] (some centres undefined),inactive: 10.9%,
O=P(Nc1ccccn1)(c1ccc(Br)cc1)c1ccc(Br)cc1,,active: 6.31 µM
CN(C)C1(CNC(=O)c2ccc(Cl)c(S(N)(=O)=O)c2)CCCCC1,inactive: 1.18%,
COc1ccc(N)c([N+](=O)[O-])c1[N+](=O)[O-],inactive: 1.93%,
O=C(OC1CN2CCC1CC2)c1cccc(Cl)c1 (centres undefined),inactive: 0%,
C(Cc1nn[nH]n1)Cc1nn[nH]n1,inactive: 18.9%,
Nc1ccc([As](=O)(O)c2ccc([N+](=O)[O-])cc2)cc1,inactive: 40.9%,
O=[As](O)(c1ccccc1)c1ccc(O)cc1,inactive: 21.2%,
O=[N+]([O-])c1ncn(CCn2cnc([N+](=O)[O-])n2)n1,inactive: 16.4%,

SMILES,"activity change, negative = inhibition",Potency
c1nnnn1CCn1cnnn1,inactive: 5.23%,
O=P(Nc1nccs1)(c1ccccc1)c1ccccc1,inactive: -1.18%,
CCc1cc(O)c([N+](=O)[O-])c(C)c1[N+](=O)[O-],inactive: 2.97%,
O=P1(Nc2nc3ccc(Cl)cc3s2)COc2ccccc2O1 (centres undefined),inactive: 2.22%,
CCOc1ccc(C2=NCC(CBr)S2)cc1 (centres undefined),inactive: -8.84%,
CC(=O)Nc1ccc([As](=O)(O)O)c(O)c1,inactive: 14%,
CC(=O)Nc1ccc(Oc2c([N+](=O)[O-])cc([N+](=O)[O-])cc2[N+](=O)[O-])cc1,inactive: -15.1%,
C[C@H]1OP(=O)(Oc2ccccc2)C[C@@H]2O[C@@H]21 (some centres undefined),inactive: 5.91%,
C[C@@H]1C=CCP(=O)(Oc2ccccc2)O1 (some centres undefined),inactive: 15.6%,
CC(=O)c1ccc(N2CC2c2ccncc2)cc1 (centres undefined),inactive: 0.569%,
COC(=O)C1(C)COP(=O)(NCc2ccccc2)OC1 (centres undefined),inactive: -1.81%,
O=P1(N(CCCl)CCCl)OCCC2CCCCN21 (centres undefined),inactive: 5.75%,
c1ccc(-c2nn[nH]n2)c(-c2nn[nH]n2)c1,inactive: 9.72%,
Cc1ccc(NP(=O)(Oc2cccc(C)c2)Oc2cccc(C)c2)nc1,inactive: -0.752%,
CCNC(=S)/N=C(\N)N[N+](=O)[O-],inactive: 13.4%,
CN(C)C(=O)Oc1noc2ccccc12,inactive: 4.84%,
O=C(OC1CN2CCC1CC2)c1ccccc1 (centres undefined),inactive: -20.8%,
CCC(=O)N1C2C3N(C(=O)CC)C1C1N(C(=O)CC)C(C(N1C(=O)CC)N3C(=O)CC)N2C(=O)CC,inactive: 29%,
COC(=O)c1cc2c(s1)N=C(c1ccccc1)N(C)P2(=O)N1CCOCC1 (centres undefined),inactive: -1.19%,
CC(=O)NC(SC(=S)N(CC(C)C)CC(C)C)C(Cl)(Cl)Cl (centres undefined),inactive: -25%,
